Laboratory results: ChEMBL document CHEMBL1148371, “Sulfonyl-containing aldophosphamide analogues as novel anticancer prodrugs targeted against cyclophosphamide-resistant tumor cell lines” (J Med Chem, 2004)

Key:
[1] = Half life period in human plasma using phosphate buffer (0.08 M); format: ADME, cell-free
[2] = Half life period in phosphate buffer (0.08 M); format: ADME
Procedure, shortened: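 Prodrug was incubated in 0.08 M phosphate buffer pH 7.4 at 37 °C with shaking, mostly at 3–9 mM (0.8 or 0.3 mM for some). Incubation was stopped with 2.0 M acetate pH 5.0 plus EtOH. Parent compound was quantified by silica TLC (UV 254 nm or NBP stain) and densitometry against a zero-time control. kobs came from the ln(% remaining) versus time slope; t1/2 = 0.693/kobs.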

P388/CPA [3] = test: In vivo antitumor activity against P388/CPA leukemia (resistant) in mice measured by increase in life span after 200 mg/kg compound administration
P388/CPA [4] = test: In vivo antitumor activity against P388/CPA leukemia (resistant) in mice measured by increase in life span after 400 mg/kg compound administration
P388/CPA [5] = test: In vivo antitumor activity against P388/CPA leukemia in mice (resistant) measured by increase in life span after 100 mg/kg compound administration
P388 [6] = test: In vivo antitumor activity against P388/0 (wild) leukemia in mice measured by increase in life span after 100 mg/kg compound administration
P388 [7] = test: In vivo antitumor activity against P388/0 (wild) leukemia in mice measured by increase in life span after 200 mg/kg compound administration
P388 [8] = test: In vivo antitumor activity against P388/0 (wild) leukemia in mice measured by increase in life span after 400 mg/kg compound administration
[9] = Half life period in human plasma using phosphate buffer (0.1 M)
[10] = Half life period in phosphate buffer (0.1 M)
Homo sapiens = species: Homo sapiens; test: Half life period in human plasma albumin using phosphate buffer (0.08 M); details: in vivo

What does the source list for `CC(CS(C)(=O)=O)OP(N)(=O)N(CCCl)CCCl` (centres undefined)?
T1/2 [1]: 6.7 h; T1/2 [2]: 15.2 h; ILS (P388/CPA [3]): 28%; ILS (P388/CPA [4]): 60%; ILS (P388/CPA [5]): 12%; ILS (P388 [6]): 10%; ILS (P388 [7]): 10%; ILS (P388 [8]): 30%

For `O=P1(N(CCCl)CCCl)NC(O)CCO1` (centres undefined), which T1/2 [9] is on record?
Its T1/2 is 0.25 h.

What about the T1/2 [10] of the same compound?
Its T1/2 is 0.75 h.

With `CS(=O)(=O)CCOP(N)(=O)N(CCCl)CCCl` (centres undefined) as the compound, how does the T1/2 [1] read?
Its T1/2 is 2.2 h.

And the T1/2 (Homo sapiens)?
The T1/2 was 2.3 h.

What about the T1/2 [2] of the same compound?
Its T1/2 is 5.9 h.

What about the ILS (P388/CPA [3]) of the same compound?
The ILS was 52%.

What about the ILS (P388/CPA [4]) of the same compound?
Its ILS is 100%.

And the ILS (P388/CPA [5])?
The ILS was 28%.

And the ILS (P388 [6])?
The ILS was 36%.

What about the ILS (P388 [7]) of the same compound?
Its ILS is 73%.

What about the ILS (P388 [8]) of the same compound?
The ILS was 91%.
